The chains behind the UniProt entries cited, without tags or fusion partners. Where a name states a change or a piece, a line headed by the entry shows the natural chain unless it says otherwise.
UniProt P43490: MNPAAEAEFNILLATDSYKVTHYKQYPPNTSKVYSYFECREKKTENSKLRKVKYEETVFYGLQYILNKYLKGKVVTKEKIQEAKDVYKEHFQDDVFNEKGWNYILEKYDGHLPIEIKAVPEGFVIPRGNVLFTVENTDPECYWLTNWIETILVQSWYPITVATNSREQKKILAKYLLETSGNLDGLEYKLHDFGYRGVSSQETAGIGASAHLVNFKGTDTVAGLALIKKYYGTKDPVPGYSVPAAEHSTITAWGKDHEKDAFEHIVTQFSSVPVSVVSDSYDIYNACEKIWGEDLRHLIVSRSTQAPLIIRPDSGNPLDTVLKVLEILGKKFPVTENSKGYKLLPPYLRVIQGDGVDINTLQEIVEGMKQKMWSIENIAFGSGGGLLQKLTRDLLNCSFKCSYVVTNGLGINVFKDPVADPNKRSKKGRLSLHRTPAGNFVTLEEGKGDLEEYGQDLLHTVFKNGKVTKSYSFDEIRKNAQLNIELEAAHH

In patent publication US9458172B2, “Pyridinyl and pyrimidinyl sulfoxide and sulfone derivatives” (priority 2012, dated 2016):

Target: NAMPT (Homo sapiens (Human), UniProt P43490)
Test: Biochemical Inhibition Assay (NAMPT enzymatic reaction, NMN quantified by mass spectrometry)
Settings: 33 nM recombinant His-tagged NAMPT, 1 μM NAM, 30 min at rt
Protocol: Assay 1: Biochemical Inhibition Assay
NAMPT protein purification. Recombinant His-tagged NAMPT was produced in E. coli cells, purified over a Ni column, and further purified over a size-exclusion column by XTAL Biostructures.
The NAMPT Enzymatic Reaction. The NAMPT enzymatic reactions were carried out in Buffer A (50 mM Hepes pH 7.5, 50 mM NaCl, 5 mM MgCl2, and 1 mM THP) in 96-well V-bottom plates. The compound titrations were performed in a separate dilution plate by serially diluting the compounds in DMSO to make a 100× stock. […] The compound and enzyme mixture was incubated for 15 min at rt, then 10 μL of 10× substrate and co-factors in Buffer A were added to the test well to make a final concentration of 1 μM NAM, […] 5-Phospho-D-ribose 1-diphosphate (PRPP), and 2.5 mM Adenosine 5′-triphosphate (ATP). The reaction was allowed to proceed for 30 min at rt, then was quenched with the addition of 11 μL of a solution of formic acid and L-Cystathionine to make a final concentration of 1% formic acid and 10 μM L-Cystathionine. Background and signal strength was determined by addition (or non-addition) of a serial dilution of NMN to a pre-quenched enzyme and cofactor mix.
Quantification of NMN. A mass spectrometry-based assay was used to measure the NAMPT reaction product, β-nicotinamide mononucleotide (NMN), and the internal control (L-Cystathionine). NMN and L-Cystathionine were detected using the services of Biocius Lifesciences with the RapidFire system. In short, the NMN and L-Cystathionine were bound to a graphitic carbon cartridge in 0.1% formic acid, eluted in 30% acetonitrile buffer, and injected into a Sciex 4000 mass spectrometer. The components of the sample were ionized with electrospray ionization and the positive ions were detected. […] The fragments are quantified and the analyzed by the following method.
Determination of IC50 Values. First, the NMN signal was normalized to the L-Cystathionine signal by dividing the NMN signal by the L-Cystathionine signal for each well. The signal from the background wells were averaged and subtracted from the test plates.

Structure (SMILES) | IC50 [nM]
O=C(NCc1ccc(S(=O)(=O)C2CCN(C3CCOCC3)CC2)cn1)c1cc2ccncc2o1 [Example 105, Furo[2,3-c]pyridine-2-carboxylic acid {5-[1-(tetrahydro-pyran-4-yl)-piperidine-4-sulfonyl]-pyridin-2-ylmethyl)-amide] | 54.3
CCN(C)c1ncc(S(=O)(=O)c2ccc(CNC(=O)c3cc4ccncc4o3)nc2)s1 [Example 146, N-[[5-[2-[ethyl(methyl)amino]thiazol-5-yl]sulfonyl-2-pyridyl]methyl]furo[2,3-c]pyridine-2-carboxamide] | 5.65
O=C(NCc1ccc(S(=O)(=O)c2cccc(OC(F)(F)F)c2)cn1)c1cnc2[nH]ncc2c1 [Example 19, 1H-Pyrazolo[3,4-b]pyridine-5-carboxylic acid [5-(3-trifluoromethoxy-benzenesulfonyl)-pyridin-2-ylmethyl]-amide] | 53.7
O=C(NCc1ccc(S(=O)(=O)c2cc(F)cc(N3CCOCC3)c2)cn1)c1cc2ccncc2o1 [Example 88, Furo[2,3-c]pyridine-2-carboxylic acid [5-(3-fluoro-5-morpholin-4-yl-benzenesulfonyl)-pyridin-2-ylmethyl]-amide] | 5.9
O=C(NCc1ccc(S(=O)(=O)C2CCN(C3COC3)CC2)cn1)c1cc2ccncc2o1 [Example 103, Furo[2,3-c]pyridine-2-carboxylic acid [5-(1-oxetan-3-yl-piperidine-4-sulfonyl)-pyridin-2-ylmethyl]-amide] | 55.2
O=C(NCc1ccc(S(=O)(=O)c2ccc(N3CCOCC3)cc2)cn1)N1Cc2ccncc2C1 [Example 97, 1,3-Dihydro-pyrrolo[3,4-c]pyridine-2-carboxylic acid [5-(4-morpholin-4-yl-benzenesulfonyl)-pyridin-2-ylmethyl]-amide] | 5.9
CCn1cc(S(=O)(=O)c2ccc(CNC(=O)c3cc4ccncc4o3)nc2)cn1 [Example 176, N-[[5-(l-ethylpyrazol-4-yl)sulfonyl-2-pyridyl]methyl]furo[2,3-c]pyridine-2-carboxamide] | 54.2
COc1cc(F)cc(S(=O)(=O)c2ccc(CNC(=O)c3cnc4[nH]ncc4c3)nc2)c1 [Example 144, N-[[5-(3-fluoro-5-methoxy-phenyl)sulfonyl-2-pyridyl]methyl]-1H-pyrazolo[3,4-b]pyridine-5-carboxamide] | 26.2
CCCn1cc(S(=O)(=O)c2ccc(CNC(=O)N3Cc4ccncc4C3)nc2)cn1 [Example 140, N-[[5-(1-propylpyrazol-4-yl)sulfonyl-2-pyridyl]methyl]-1,3-dihydropyrrolo[3,4-c]pyridine-2-carboxamide] | 11.8
O=C(NCc1ccc(S(=O)(=O)c2cccc(OC(F)(F)F)c2)cn1)c1cc2cnccc2[nH]1 [Example 21, 1H-Pyrrolo[3,2-c]pyridine-2-carboxylic acid [5-(3-trifluoromethoxy-benzenesulfonyl)-pyridin-2-ylmethyl]-amide] | 11.8
